Measurements published in US7601708B2, “Bile-acid derived compounds for providing sustained systemic concentrations of drugs after oral administration” (XenoPort, Inc., priority 2000, dated 2009).

Chains of the proteins cited; added tags and fusions are not shown.
UniProt Q12908, whole entry: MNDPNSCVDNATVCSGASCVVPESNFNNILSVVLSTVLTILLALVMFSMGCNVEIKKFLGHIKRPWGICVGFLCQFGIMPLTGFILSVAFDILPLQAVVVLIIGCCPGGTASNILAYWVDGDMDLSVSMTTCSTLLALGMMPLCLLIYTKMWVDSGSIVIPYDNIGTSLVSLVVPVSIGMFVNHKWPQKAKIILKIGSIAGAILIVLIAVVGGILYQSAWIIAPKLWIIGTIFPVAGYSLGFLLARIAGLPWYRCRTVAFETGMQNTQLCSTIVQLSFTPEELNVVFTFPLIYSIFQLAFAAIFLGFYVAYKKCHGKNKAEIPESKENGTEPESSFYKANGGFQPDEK

Molecular target: IBAT (Homo sapiens, UniProt Q12908)
Assay: Electrogenic transport in Xenopus oocytes expressing IBAT
Format: cell-based
Settings: maximal induced current relative to glycodeoxycholate (100 μM)

## C[C@H](CCC(=O)OCC(=O)NCC1(CC(=O)O)CCCCC1)[C@H]1CC[C@H]2[C@@H]3[C@H](O)C[C@@H]4C[C@H](O)CC[C@]4(C)[C@H]3C[C@H](O)[C@]12C
  % Max. (GDC): 83%

## C[C@H](CCC(=O)NCC1(CC(=O)O)CCCCC1)[C@H]1CC[C@H]2[C@@H]3[C@@H](O)C[C@@H]4C[C@H](O)CC[C@]4(C)[C@H]3CC[C@]12C
Tested form: Na salt
  % Max. (GDC): 60%

## C[C@H](OC(=O)CC[C@@H](C)[C@H]1CC[C@H]2[C@@H]3[C@H](O)C[C@@H]4C[C@H](O)CC[C@]4(C)[C@H]3C[C@H](O)[C@]12C)C(=O)NCC1(CC(=O)O)CCCCC1
  % Max. (GDC): 76%

## C[C@H](CCC(=O)O[C@H](C)C(=O)NCC1(CC(=O)O)CCCCC1)[C@H]1CC[C@H]2[C@@H]3[C@H](O)C[C@@H]4C[C@H](O)CC[C@]4(C)[C@H]3C[C@H](O)[C@]12C
  % Max. (GDC): 70%
